1 compound from patent US20040014794A1, “Use of hydroxypyridone-derivatives in wound healing” (priority 2002, published 2004) can be followed below.

This series relates to NMRI mice. In words: Mouse skin wound model (punch-through ear holes). To be noted: dermal cream containing 1% CPX, daily.

With `Cc1cc(C2CCCCC2)n(O)c(=O)c1.NCCO` [CPX, 6-cyclohexyl-1-hydroxy-4-methyl-2(1H)-pyridone 2-aminoethanol salt], the “reddening on the healthy skin area of the same ear” value was “never observed”.
